Drawing on patent US7662973B2, “Fluorescent detection method and reagent” (GE Healthcare UK Limited, priority 2000, dated 2010), this text covers Km for 1 molecule.

Amino acid sequences for entries named in this document (tags omitted).
UniProt P38489, whole entry: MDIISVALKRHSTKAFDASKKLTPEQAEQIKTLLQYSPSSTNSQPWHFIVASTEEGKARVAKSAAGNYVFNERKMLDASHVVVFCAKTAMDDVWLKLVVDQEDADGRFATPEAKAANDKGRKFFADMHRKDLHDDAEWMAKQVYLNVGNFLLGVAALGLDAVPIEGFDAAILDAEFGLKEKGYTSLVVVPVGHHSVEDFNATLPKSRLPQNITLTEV

For this experiment, the target named is E. coli B nitroreductase (Escherichia coli, UniProt P38489). The conditions noted are these: pH 7.5; tested form: K salt.

With `CC1(C)C(=CC=CC=CC2=[N+](Cc3cc([N+](=O)[O-])cc([N+](=O)[O-])c3)c3ccc(S(=O)(=O)[O-])cc3C2(C)C)N(CCCCCC(=O)O)c2ccc(S(=O)(=O)O)cc21`, the Michaelis constant (Km) came to 8.6 µM.

Broadly, the Km is the concentration of substrate that gives half-maximal velocity.
